Test results taken from patent US5149688A, “Methods, compounds, and compositions for immunosuppression” (priority 1990, dated 1992).

Assays:
[1] = system: adjuvant arthritis (AA); assay: Comparative efficacy of MTX and SA in suppressing onset of AA (Example 3); set-up: species or system Lewis rats; conditions: rat, in vivo
[2] = system: established adjuvant arthritis (AA); assay: Comparative efficacy of SA and MTX in the treatment of established arthritis (Example 4); format: in vivo, male Lewis rats
Procedure: Three groups of 15 male Lewis rats were injected with M.Tb on day 0 in the left hindpaw. […] On day 16, subcutaneous pumps were placed in the SA and control groups. SA was administered at 300 mg/kg/day by CI. The control group received 2.5M NaCl. […] Treatment was continued to day 30.

[3] = system: adjuvant arthritis (AA); assay: Combined SA and MTX treatment of AA (Example 5); format: in vivo, male Lewis rats; conditions: 4.8 mg/kg/week IP; FIG. 11
Excerpt: AA was induced in male Lewis rats as in the previous examples. On day 5, subcutaneous pumps were placed in all the rats.

[4] = system: adjuvant arthritis (AA); assay: Long term suppression of AA using combined SA and MTX treatment (Example 6); format: in vivo, male Lewis rats; conditions: SA 300 mg/kg/day IP or MTX 0.9 mg/kg/week IP, day 5 to 15
Procedure: On day 0, three groups of 10 male Lewis rats were injected with M.Tb in oil suspension, as in previous examples. […] The animals were evaluated for arthritis development.

## CN(Cc1cnc2nc(N)nc(N)c2n1)c1ccc(C(=O)N[C@@H](CCC(=O)O)C(=O)O)cc1 [MTX, Methotrexate]
[1]
  footpad swelling suppression: significant suppression
[2]; SA 300 mg/kg/day CI or MTX 2.4 mg/kg/week IP, day 16 to 30, FIG. 10
  right footpad diameter, progression from day 23 to 63: further progression of the right footpad swelling
[2]; day 23, SA 300 mg/kg/day CI or MTX 2.4 mg/kg/week IP from day 16, control 321, normal about 170 U
  mean right hindpaw thickness: 324 U
[3]
  suppression of AA (right footpad swelling), MTX alone: Maximal efficacy
[4]
  suppression of AA, single drugs IP: AA was not suppressed
